Source: BindingDB's records for doi:10.1021/acs.jmedchem.7b00707 (Research Triangle Institute, 2017)

Chains of the proteins cited; added tags and fusions are not shown.
UniProt P21554, whole entry: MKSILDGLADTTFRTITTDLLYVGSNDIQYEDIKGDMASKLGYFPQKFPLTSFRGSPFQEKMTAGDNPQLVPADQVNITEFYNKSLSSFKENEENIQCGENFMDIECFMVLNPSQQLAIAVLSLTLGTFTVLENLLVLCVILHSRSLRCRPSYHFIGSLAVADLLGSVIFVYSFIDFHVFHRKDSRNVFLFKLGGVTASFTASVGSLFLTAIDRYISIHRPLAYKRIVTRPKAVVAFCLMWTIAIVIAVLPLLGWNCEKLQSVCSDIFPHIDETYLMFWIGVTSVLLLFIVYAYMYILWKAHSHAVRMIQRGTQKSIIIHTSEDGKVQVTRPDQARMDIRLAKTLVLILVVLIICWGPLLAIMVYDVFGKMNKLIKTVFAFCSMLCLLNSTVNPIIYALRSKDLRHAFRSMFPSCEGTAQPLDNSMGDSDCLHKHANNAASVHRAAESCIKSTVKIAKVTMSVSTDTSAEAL

Target: Cannabinoid receptor 1 (Homo sapiens, UniProt P21554)

Compound: O=C(Nc1ccc(Cl)cc1)Nc1cccc(-c2cccc(N3CCCC3)n2)c1
- IC50: 0.05 µM
